The entries are a selection whose mix differs from that of the whole data set. Some tests of the compounds listed are not included; inactive here does not mean inactive elsewhere. Inconclusive results are not listed. Active and inactive are the calls of the source. Calls come from the whole dose curve; as a rule, active = well fitted inhibition curve with a large enough effect; inconclusive = small, poorly fitted or top-dose-only effect, or another doubt; inactive = no such curve, though single readings can be large or run the other way.
What follows are compounds tested against 4'-phosphopantetheinyl transferase ffp (Bacillus subtilis) (UniProt Q9F4F7) (assay: qHTS Assay for Inhibitors of Bacillus subtilis Sfp phosphopantetheinyl transferase (PPTase)). Conditions: Biochemical Sfp PPTase activity.
For `C=CCN1CCN(CCOC(=O)C(O)(c2ccccc2)c2ccccc2)CC1`, the largest response in the series, negative = inhibition was inactive: 9.48%. For `CC(C)N1C(=O)CC2(CCN(CCOC(=O)C(O)(c3ccccc3)c3ccccc3)CC2)C1=O`, the largest response in the series, negative = inhibition was inactive: -3.46%.
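Note: the enzyme is Sfp with the accession as filed and its product quenches rhodamine fluorescence; 0% = enzyme reaction without inhibitor and -100% = no enzyme wells.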
